Data from US11618753B2 (priority 2018, dated 2023).
Where a name gives a salt, the structure may show the parent alone.

Sequences of proteins named here, by UniProt entry; tags and fusion partners are left off. A change or cut given only in a name is not applied to a line headed by its entry.
UniProt O00329: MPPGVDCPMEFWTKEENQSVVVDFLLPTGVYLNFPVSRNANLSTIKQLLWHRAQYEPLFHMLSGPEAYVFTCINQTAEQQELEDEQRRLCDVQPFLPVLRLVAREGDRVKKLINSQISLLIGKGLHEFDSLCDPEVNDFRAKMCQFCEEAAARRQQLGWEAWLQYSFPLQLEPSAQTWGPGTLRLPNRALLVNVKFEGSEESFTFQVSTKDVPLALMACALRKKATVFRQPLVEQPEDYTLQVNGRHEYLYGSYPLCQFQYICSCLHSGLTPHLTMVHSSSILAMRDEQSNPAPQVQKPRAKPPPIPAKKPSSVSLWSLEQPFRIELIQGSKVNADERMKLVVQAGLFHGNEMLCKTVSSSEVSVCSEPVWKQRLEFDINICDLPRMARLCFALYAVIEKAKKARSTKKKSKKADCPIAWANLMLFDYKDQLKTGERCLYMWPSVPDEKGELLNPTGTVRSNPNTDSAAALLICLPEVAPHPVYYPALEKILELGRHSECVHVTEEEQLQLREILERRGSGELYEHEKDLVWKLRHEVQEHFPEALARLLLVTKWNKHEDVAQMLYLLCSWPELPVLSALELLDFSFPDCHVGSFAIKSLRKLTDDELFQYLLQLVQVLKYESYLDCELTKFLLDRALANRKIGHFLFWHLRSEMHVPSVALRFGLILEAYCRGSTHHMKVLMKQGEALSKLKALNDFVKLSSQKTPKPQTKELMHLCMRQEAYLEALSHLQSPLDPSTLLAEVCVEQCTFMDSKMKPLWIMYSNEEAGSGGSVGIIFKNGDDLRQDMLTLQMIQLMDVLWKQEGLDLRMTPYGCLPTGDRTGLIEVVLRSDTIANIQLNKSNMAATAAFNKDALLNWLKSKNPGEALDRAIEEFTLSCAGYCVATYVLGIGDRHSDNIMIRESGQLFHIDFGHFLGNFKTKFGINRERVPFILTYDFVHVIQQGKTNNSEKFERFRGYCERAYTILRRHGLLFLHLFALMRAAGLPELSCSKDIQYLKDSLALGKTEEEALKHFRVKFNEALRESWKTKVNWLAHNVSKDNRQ

The molecules below were run against GST-tagged PIK3Cδ in complex with PIK3R1 (Homo sapiens (Human), UniProt O00329) (assay: biochemical).

SMILES	IC50
CC(CCNC(=O)c1cc(-c2cc(C(F)(F)F)c3c(N)ncnn23)ccc1F)c1ccccc1 (centres unmarked) [Example 243, 5-[4-amino-5-(trifluoromethyl)pyrrolo[2,1-f][1,2,4]triazin-7-yl]-2-fluoro-N-(3-phenylbutyl)benzamide]	> 1500 nM
Nc1ncnn2c(-c3ccc(F)c(C(=O)NCC[C@@H](O)c4ccc(Cl)cc4)c3)cc(C(F)(F)F)c12 [Example 246, 5-[4-amino-5-(trifluoromethyl)pyrrolo[2,1-f][1,2,4]triazin-7-yl]-N-[(3R)-3-(4-chlorophenyl)-3-hydroxypropyl]-2-fluorobenzamide]	237 nM
Nc1ncnn2c(-c3ccc(F)c(C(=O)NCC[C@H](O)c4ccc(Cl)cc4)c3)cc(C(F)(F)F)c12 [Example 248, 5-[4-amino-5-(trifluoromethyl)pyrrolo[2,1-f][1,2,4]triazin-7-yl]-N-[(3S)-3-(4-chlorophenyl)-3-hydroxypropyl]-2-fluorobenzamide]	> 1500 nM
Nc1ncnn2c(-c3ccc(F)c(C(=O)NCC4CCCOC4c4ccccc4)c3)cc(C(F)(F)F)c12 (centres unmarked) [Example 250, 5-[4-amino-5-(trifluoromethyl)pyrrolo[2,1-f][1,2,4]triazin-7-yl]-2-fluoro-N-[(2-phenyloxan-3-yl)methyl]benzamide]	514 nM
Nc1ncnn2c(-c3cnc(F)c(C(=O)NCC[C@@H](O)c4ccc(Cl)cc4)c3)cc(C(F)(F)F)c12 [Example 269, 5-[4-amino-5-(trifluoromethyl)pyrrolo[2,1-f][1,2,4]triazin-7-yl]-N-[(3R)-3-(4-chlorophenyl)-3-hydroxypropyl]-2-fluoropyridine-3-carboxamide]	434 nM
Nc1ncnn2c(-c3cnc(F)c(C(=O)Nc4cnn(Cc5ccccc5)c4)c3)cc(C(F)(F)F)c12 [Example 270, 5-[4-amino-5-(trifluoromethyl)pyrrolo[2,1-f][1,2,4]triazin-7-yl]-N-(1-benzyl-1H-pyrazol-4-yl)-2-fluoropyridine-3-carboxamide]	> 1500 nM
CC(CCNC(=O)c1cc(-c2cc(C(F)(F)F)c3c(N)ncnn23)cnc1F)c1ccccc1 (centres unmarked) [Example 271, 5-[4-amino-5-(trifluoromethyl)pyrrolo[2,1-f][1,2,4]triazin-7-yl]-2-fluoro-N-(3-phenylbutyl)pyridine-3-carboxamide]	> 1500 nM
Nc1ncnn2c(-c3cnc(F)c(C(=O)NCCC(O)c4ccc(F)cc4)c3)cc(C(F)(F)F)c12 (centres unmarked) [Example 272, 5-[4-amino-5-(trifluoromethyl)pyrrolo[2,1-f][1,2,4]triazin-7-yl]-2-fluoro-N-[3-(4-fluorophenyl)-3-hydroxypropyl] pyridine-3-carboxamide]	285 nM
Nc1ncnn2c(-c3cncc(C(=O)Nc4cnn(Cc5ccccc5)c4)c3)cc(C(F)(F)F)c12 [Example 276, 5-[4-amino-5-(trifluoromethyl)pyrrolo[2,1-f][1,2,4]triazin-7-yl]-N-(1-benzyl-1H-pyrazol-4-yl)pyridine-3-carboxamide]	693 nM
[2H]C([2H])([2H])Oc1ncc(-c2cc(C(F)(F)F)c3c(N)ncnn23)cc1C(=O)N[C@@H]1CN(C(=O)[C@@](C)(O)C(F)(F)F)C[C@@H]1F [Example 386, 5-[4-amino-5-(trifluoromethyl)pyrrolo [2,1-f][1,2,4]triazin-7-yl]-N-[(3R,4S)-4-fluoro-1-[(2R)-3,3,3-trifluoro-2-hydroxy-2-methylpropanoyl]pyrrolidin-3-yl]-2-(deutero)methoxy-pyridine-3-carboxamide]	367 nM
C[C@@](O)(C(=O)N1C[C@H](F)[C@H](NC(=O)c2ccc(F)c(-c3cc(C(F)(F)F)c4c(N)ncnn34)c2)C1)C(F)(F)F [Example 426, 3-[4-amino-5-(trifluoromethyl)pyrrolo[2,1-f][1,2,4]triazin-7-yl]-4-fluoro-N-[(3R,4S)-4-fluoro-1-[(2R)-3,3,3-trifluoro-2-hydroxy-2-methylpropanoyl]pyrrolidin-3-yl] benzamide, TFA]	1180 nM
COc1ncc(-c2cc(CN3CCOCC3)c3c(N)ncnn23)cc1C(=O)N[C@@H]1CN(CC(O)C(F)(F)F)C[C@@H]1F (stereo partly drawn) [Example 481, 5-{4-amino-5-[(morpholin-4-yl)methyl]pyrrolo[2,1-f][1,2,4]triazin-7-yl}-N-[(3R,4S)-4-fluoro-1-(3,3,3-trifluoro-2-hydroxypropyl)pyrrolidin-3-yl]-2-methoxypyridine-3-carboxamide]	15000 nM
COc1ncc(-c2cc(CN3CCOCC3)c3c(N)ncnn23)cc1C(=O)N[C@@H]1CN(C(=O)C2CC(F)(F)C2)C[C@@H]1F [Example 487, 5-{4-amino-5-[(morpholin-4-yl)methyl]pyrrolo[2,1-f][1,2,4]triazin-7-yl}-N-[(3R,4S)-1-(3,3-difluorocyclobutanecarbonyl)-4-fluoropyrrolidin-3-yl]-2-methoxypyridine-3-carboxamide]	> 15000 nM
COc1ncc(-c2cc(CN3CC(F)(F)C3)c3c(N)ncnn23)cc1C(=O)N[C@@H]1CN(C(=O)C2CC(F)(F)C2)C[C@@H]1F [Example 489, 5-{4-amino-5-[(3,3-difluoroazetidin-1-yl)methyl]pyrrolo[2,1-f][1,2,4]triazin-7-yl}-N-[(3R,4S)-1-(3,3-difluorocyclobutanecarbonyl)-4-fluoropyrrolidin-3-yl]-2-methoxypyridine-3-carboxamide]	4130 nM
COc1ncc(-c2cc(COC(C)C)c3c(N)ncnn23)cc1C(=O)N[C@@H]1CN(C(=O)C2CC(F)(F)C2)C[C@@H]1F [Example 491, 5-{4-amino-5-[(propan-2-yloxy)methyl]pyrrolo[2,1-f][1,2,4]triazin-7-yl}-N-[(3R,4S)-1-(3,3-difluorocyclobutanecarbonyl)-4-fluoropyrrolidin-3-yl]-2-methoxypyridine-3-carboxamide]	1940 nM
COc1ncc(-c2cc(C(F)(F)F)c3c(N)ncnn23)cc1C(=O)N[C@@H]1CN(S(=O)(=O)c2ccccc2C#N)C[C@@H]1F [Example 502, 5-[4-amino-5-(trifluoromethyl)pyrrolo[2,1-f][1,2,4]triazin-7-yl]-N-[(3R,4S)-1-(2-cyanobenzenesulfonyl)-4-fluoropyrrolidin-3-yl]-2-methoxypyridine-3-carboxamide]	3370 nM
COc1ncc(-c2cc(C(F)(F)F)c3c(N)ncnn23)cc1C(=O)N[C@@H]1CN(S(=O)(=O)c2ccc(F)cc2)C[C@@H]1F [Example 505, 5-[4-amino-5-(trifluoromethyl)pyrrolo[2,1-f][1,2,4]triazin-7-yl]-N-[(3R,4S)-4-fluoro-1-(4-fluorobenzenesulfonyl)pyrrolidin-3-yl]-2-methoxypyridine-3-carboxamide]	> 15000 nM
COc1ncc(-c2c(C#N)cc3c(N)ncnn23)cc1C(=O)N[C@@H]1CN(C(=O)C2(C(F)(F)F)CC2)C[C@@H]1F [Example 554, 5-(4-amino-6-cyanopyrrolo[2,1-f][1,2,4]triazin-7-yl)-N-((3R,4S)-4-fluoro-1-(1-(trifluoromethyl)cyclopropane-1-carbonyl)pyrrolidin-3-yl)-2-methoxynicotinamide]	> 15000 nM
Cc1c(F)cc(-c2cc(C(F)(F)F)c3c(N)ncnn23)cc1C(=O)N[C@@H]1CN(C(=O)[C@@](C)(O)C(F)(F)F)C[C@@H]1F [Example 569, 5-[4-amino-5-(trifluoromethyl)pyrrolo[2,1-f][1,2,4]triazin-7-yl]-3-fluoro-N-[(3R,4S)-4-fluoro-1-[(2R)-3,3,3-trifluoro-2-hydroxy-2-methylpropanoyl]pyrrolidin-3-yl]-2-methylbenzamide]	545 nM
CC(C)CC(=O)N1C[C@H](F)[C@H](NC(=O)c2cc(-c3cc(C(F)(F)F)c4c(N)ncnn34)cc(F)c2CF)C1 [Example 625, 5-[4-amino-5-(trifluoromethyl)pyrrolo[2,1-f][1,2,4]triazin-7-yl]-3-fluoro-N-[(3R,4S)-4-fluoro-1-(3-methylbutanoyl)pyrrolidin-3-yl]-2-(fluoromethyl)benzamide]	100 nM
CCc1c(F)cc(-c2cc(C(F)(F)F)c3c(N)ncnn23)cc1C(=O)N[C@@H]1CN(C(=O)c2ccccc2F)C[C@@H]1F [Example 645, 5-[4-amino-5-(trifluoromethyl)pyrrolo[2,1-f][1,2,4]triazin-7-yl]-2-ethyl-3-fluoro-N-[(3R,4S)-4-fluoro-1-(2-fluorobenzoyl)pyrrolidin-3-yl]benzamide]	1320 nM
CCc1c(F)cc(-c2cc(C(F)(F)F)c3c(N)ncnn23)cc1C(=O)N[C@@H]1CN(C(=O)CC(C)C)C[C@@H]1F [Example 646, 5-[4-amino-5-(trifluoromethyl)pyrrolo[2,1-f][1,2,4]triazin-7-yl]-2-ethyl-3-fluoro-N-[(3R,4S)-4-fluoro-1-(3-methylbutanoyl)pyrrolidin-3-yl]benzamide]	617 nM
CCc1c(F)cc(-c2cc(C(F)(F)F)c3c(N)ncnn23)cc1C(=O)N[C@@H]1CN(C(=O)[C@@](C)(O)C(F)(F)F)C[C@@H]1F [Example 650, 5-[4-amino-5-(trifluoromethyl)pyrrolo[2,1-f][1,2,4]triazin-7-yl]-2-ethyl-3-fluoro-N-[(3R,4S)-4-fluoro-1-[(2R)-3,3,3-trifluoro-2-hydroxy-2-methylpropanoyl]pyrrolidin-3-yl]benzamide]	> 15000 nM
CCc1c(F)cc(-c2cc(C(F)(F)F)c3c(N)ncnn23)cc1C(=O)N[C@@H]1CN(C(=O)CC(C)C(F)(F)F)C[C@@H]1F (stereo partly drawn) [Example 652, 5-[4-amino-5-(trifluoromethyl)pyrrolo[2,1-f][1,2,4]triazin-7-yl]-2-ethyl-3-fluoro-N-[(3R,4S)-4-fluoro-1-(4,4,4-trifluoro-3-methylbutanoyl)pyrrolidin-3-yl]benzamide]	> 15000 nM
CCc1c(F)cc(-c2cc(C(F)(F)F)c3c(N)ncnn23)cc1C(=O)N[C@@H]1CN(C(=O)CC(C)(O)C(F)(F)F)C[C@@H]1F (stereo partly drawn) [Example 653, 5-[4-amino-5-(trifluoromethyl)pyrrolo[2,1-f][1,2,4]triazin-7-yl]-2-ethyl-3-fluoro-N-[(3R,4S)-4-fluoro-1-(4,4,4-trifluoro-3-hydroxy-3-methylbutanoyl)pyrrolidin-3-yl]benzamide]	1940 nM
CCc1c(F)cc(-c2cc(C(F)(F)F)c3c(N)ncnn23)cc1C(=O)N[C@@H]1CN(C(=O)C2CC(F)C2)C[C@@H]1F (stereo partly drawn) [Example 656, 5-[4-amino-5-(trifluoromethyl)pyrrolo[2,1-f][1,2,4]triazin-7-yl]-2-ethyl-3-fluoro-N-[(3R,4S)-4-fluoro-1-(3-fluorocyclobutanecarbonyl)pyrrolidin-3-yl]benzamide]	1670 nM
